“Also recorded” adds a separate entry of the source.
Assay: Solubility in the incubation medium of the binding assays
Assay type: physicochemical
Conditions: incubation buffer of the binding assays
Source text: Solubility was so low that some of them had to be excluded from some of the binding assays. The reason for this observation cannot be explained based on the present study, but it is speculated that increased intramolecular π–π stacking in the presence of heteroaromatic rings might have contributed to this phenomenon.

## 5-(4′-(5-Methoxypyrimidin-2-yl)-[2,2′-bithiazol]-4-yl)-[1,3]dioxolo[4,5-b]pyridine [f16]
  solubility in the incubation medium: low solubility; also recorded: decreased solubility; also recorded: could not be dissolved

— paper PMC10671360, “In Silico and In Vitro Study towards the Rational Design of 4,4′-Disarylbisthiazoles as a Selective α-Synucleinopathy Biomarker” (International Journal of Molecular Sciences, 2023)
